Results published in publication PMC5618409, “Sequence Analysis, Kinetic Constants, and Anion Inhibition Profile of the Nacrein-Like Protein (CgiNAP2X1) from the Pacific Oyster Magallana gigas (Ex-Crassostrea gigas)” (Marine Drugs, 2017).

Protein sequences, listed by entry. Tags and fused reporters are not part of them. Residues count along the entry.
UniProt A0A8W8INI3, 23-318 limits assumed: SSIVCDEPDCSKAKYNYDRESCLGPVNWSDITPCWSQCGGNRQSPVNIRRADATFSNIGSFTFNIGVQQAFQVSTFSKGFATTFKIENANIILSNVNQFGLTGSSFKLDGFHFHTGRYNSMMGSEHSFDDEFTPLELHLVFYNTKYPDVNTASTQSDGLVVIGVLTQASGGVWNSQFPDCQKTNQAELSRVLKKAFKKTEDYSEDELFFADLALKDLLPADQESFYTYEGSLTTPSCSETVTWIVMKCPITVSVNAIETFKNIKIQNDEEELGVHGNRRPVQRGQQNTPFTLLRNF

Target: CgiNAP2X1 (Magallana gigas, UniProt A0A8W8INI3)
Assay: stopped-flow CO2 hydration assay
Assay type: biochemical
Conditions: read-out: KIs [mM] ^2 / CgiNAP2X1; CO2 1.7-17 mM; 20 °C; pH 7.5 (table title), methods give 20 mM TRIS pH 8.3; 15 min preincubation

## O=[As](O)(O)c1ccccc1
  Ki: 0.087 mM
